Experimental data from doi:10.1101/2024.11.13.623454.

By UniProt entry, the sequences of proteins in these tests, tags left out. Where a name states a change or a piece, a line headed by the entry shows the natural chain unless it says otherwise.
UniProt P02550: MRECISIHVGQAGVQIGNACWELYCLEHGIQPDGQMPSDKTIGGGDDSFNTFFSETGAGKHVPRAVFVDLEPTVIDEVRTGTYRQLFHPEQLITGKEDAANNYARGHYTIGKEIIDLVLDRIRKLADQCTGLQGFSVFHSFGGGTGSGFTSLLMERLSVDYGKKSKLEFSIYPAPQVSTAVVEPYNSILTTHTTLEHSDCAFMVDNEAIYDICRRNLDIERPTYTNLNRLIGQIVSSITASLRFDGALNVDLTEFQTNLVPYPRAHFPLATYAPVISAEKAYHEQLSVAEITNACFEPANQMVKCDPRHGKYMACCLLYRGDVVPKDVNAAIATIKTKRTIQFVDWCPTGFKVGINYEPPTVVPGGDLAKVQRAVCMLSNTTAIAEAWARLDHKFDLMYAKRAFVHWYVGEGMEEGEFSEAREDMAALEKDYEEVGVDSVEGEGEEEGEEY

Target: pre-polymerized microtubules (porcine brain tubulin, GMPCPP) (porcine) (UniProt P02550)
Test: co-sedimentation; pre-polymerized GMPCPP microtubules and SSNA-1 construct, 20 μM each (1:1); SSNA-1 pre-sedimented and dialyzed against BRB10 (10 mM PIPES/KOH pH 6.8, 1 mM MgCl2, 1 mM EGTA); 4 min at room temperature; sedimented at 9,777g, 25 °C, 10 min; SDS-PAGE of supernatants and pellets

Row | concentration of SSNA-1 bound to microtubules (of 20 µM) [µM] | percent of SSNA-1 co-sedimented with microtubules [%] | Substance
1 | 9.5 | 48 | SSNA-1(Y97E) (natural protein)
2 | 5 | 25 | SSNA-1(Y15E/Y97E) (natural protein)
3 | 9.3 | 46 | SSNA-1(1-97) (domain or fragment)
4 | 6 | 30 | SSNA-1(18-105) (domain or fragment)
5 | 8.2 | 41 | SSNA-1(1-96) (domain or fragment)
6 | 9.9 | 50 | SSNA-1(1-100) (domain or fragment)
7 | 2.4 | 12 | SSNA-1(R18E/Y97E) (natural protein)
8 | 2.6 | 13 | SSNA-1(19-105) (domain or fragment)
